Source: patent US6632621B1, “G protein-coupled receptor-like receptors and modulators thereof” (priority 1999, dated 2003)

Molecular target: T1, CEGPCR5 (Caenorhabditis elegans, UniProt Q18179)
T1 sequence (Q18179 1-402): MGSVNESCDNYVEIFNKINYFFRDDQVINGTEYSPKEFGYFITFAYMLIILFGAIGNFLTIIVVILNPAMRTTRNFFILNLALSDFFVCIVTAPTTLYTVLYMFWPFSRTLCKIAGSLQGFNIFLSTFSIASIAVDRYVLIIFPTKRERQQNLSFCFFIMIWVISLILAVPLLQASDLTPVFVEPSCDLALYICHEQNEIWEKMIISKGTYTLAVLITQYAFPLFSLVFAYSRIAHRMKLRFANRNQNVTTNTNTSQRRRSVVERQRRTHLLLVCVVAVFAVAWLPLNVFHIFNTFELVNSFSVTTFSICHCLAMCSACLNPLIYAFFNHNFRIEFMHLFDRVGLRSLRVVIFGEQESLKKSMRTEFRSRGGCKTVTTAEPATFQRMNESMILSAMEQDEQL
Assay: [35S]GTPγS binding assay, CEGPCR5 expressed in CHO cells
Assay type: biochemical, C. elegans
Experimental: Recombinant pCR3.1 clones encoding invertebrate GPCR-like receptors were transformed into wild-type CHO-K1 cells and functional expression was achieved using a temperature-shift incubation protocol. The CHO-K1 cells were cultured at 37° C. in a humidified atmosphere of 5% CO2 in air in DMEM medium supplemented with 10% heat-inactivated fetal bovine serum (i.e., FBS), 10 μg/ml gentamicin, and 0.1 mM nonessential amino acids to give complete DMEM medium. Additionally, for incubations at temperatures lower than 37° C., the medium was fortified with 10 mM HEPES (pH 7.4). Cells were transfected with recombinant pCR3.1 clones containing GPCR-like receptor DNAs, using LipofectAMINE PLUS™, essentially according to the manufacturer's instructions. […] In separate plastic tubes, PLUS (20 μl/plate; Life Technologies) was added to 0.75 ml/plate of recombinant plasmid DNA in OptiMEM (5 μg/plate; Gibco/BRL—Life Technologies), mixed and incubated at room temperature for 15 minutes. Separately, LipofectAMINE (30 μl/plate) was mixed with 0.75 ml OptiMEM and added to the pre-complexed DNA/PLUS mixture and incubated at room temperature for 15 minutes. The culture medium was then replaced with serum-free transfection medium (DMEM, 5 ml/plate). The DNA-PLUS-LipofectAMINE complex was then added to the plates (1.5 ml/plate) and mixed gently into the medium, followed by a 3 hour incubation at 37° C. in 5% CO2. At this time, the medium was supplemented with complete DMEM medium containing 20% FBS (6.5 ml/plate) and incubation was continued at 37° C. in 5% CO2. After a total of 24 hours at 37° C. in 5% CO2, the medium was replaced with complete DMEM medium fortified with 10 mM HEPES (10 ml/plate) and the cells were moved to an incubator maintained at 28-30° C. in a humidified atmosphere of 5% CO2 in air. The incubation continued for an additional 24 hours, typically at the lower temperature indicated above. A plasmid encoding Green Fluorescent Protein (i.e., GFP, 4 μg/plate) was used for transient GFP expression in CHO-K1 cells to estimate the transfection yields under the same conditions as used for GPCR-like receptor polynucleotides.
To assess expression, membranes were prepared from transfected CHO-K1 cells. Transfected cells were washed once with ice-cold Dulbecco's phosphate-buffered saline (i.e., PBS), 5 ml per 10 cm plate, and the cells were scraped into 5 ml of the same buffer. Cell suspensions from multiple plates were combined and centrifuged at 500×g for 10 minutes at 4° C. The cell pellet was reconstituted in ice-cold TEE (25 mM Tris, pH 7.4, 5 mM EGTA, 5 mM EDTA). […] Membrane protein concentration was determined using the BCA Protein Assay Reagent from Pierce (Rockford, Ill.), with bovine serum albumin (i.e., BSA) as a standard. […]

[1] = EC50 range, Table 9, one range for the group of peptides

Structure (SMILES) | EC50 [nM] | EC50 [1] [nM]
CC(C)C[C@H](NC(=O)[C@@H](N)Cc1ccccc1)C(=O)N[C@@H](CCCNC(=N)N)C(=O)N[C@@H](Cc1ccccc1)C(N)=O [FLRF-NH2] | 80 to 800 | –
CSCC[C@H](NC(=O)[C@@H](N)Cc1ccccc1)C(=O)N[C@@H](CCCN=C(N)N)C(=O)N[C@@H](Cc1ccccc1)C(N)=O [FMRF-NH2] | – | 80 to 800
CC[C@H](C)[C@H](NC(=O)[C@@H](N)Cc1ccc(O)cc1)C(=O)N[C@@H](CCCNC(=N)N)C(=O)N[C@@H](Cc1ccccc1)C(N)=O [YIRF-NH2] | 1000 to 8000 | –
CC(C)C[C@H](NC(=O)[C@@H](N)Cc1ccc(O)cc1)C(=O)N[C@@H](CCCNC(=N)N)C(=O)N[C@@H](Cc1ccccc1)C(N)=O [YLRF-NH2] | – | 80 to 800

Where two headings read alike, the source gives them in different places.
